Measurements as given in US11299480B2.
In brackets after ≈: the same amount, converted by molar mass.

Assays:
[1] = Aqueous solubility (PBS, SGF, SIF)
[2] = Mouse liver microsomal (MLM) metabolic stability
[3] = Human liver microsomal (HLM) metabolic stability; details: human liver microsomes
[4] = tested on: Caco-2 cells; test: Cell membrane permeability, Caco-2 cells assay

- solubility in PBS buffer pH 7.4 [1]: 0.3 μg/mL
- solubility in simulated intestinal fluid (SIF) [1]: 0.074 mg/mL (≈ 118 µM)
- Solubility PBS ([1]; PBS buffer pH 7.4): 0.3 micrograms/milliliter
- Solubility SIF ([1]; simulated intestinal fluid): 74 micrograms/milliliter
- Metabolic Stability Half-Life MLM ([2]; mouse liver microsomes): 17 min
- RLM t1/2 ([2]; printed as RLM, method and Table 1 say mouse liver microsomes (MLM)): ≥ 17 min
- HLM t1/2 [3]: ≥ 17 min
- Metabolic Stability Half-Life HLM [3]: 19 min
- Caco-2 Cells Recovery A to B ([4]; apical to basolateral, second number of cell): 2%
- Caco-2 Cells Recovery B to A ([4]; basolateral to apical, second number of cell): 8%
- Caco-2 permeability ([4]; compounds with cyclohexyl group instead of THP ring): no appreciable permeability
Structure (SMILES): CN(CC(=O)N(Cc1ccc(C2CCCCC2)cc1)c1ccc(C(=O)NO)cc1)S(=O)(=O)c1c(F)c(F)c(F)c(F)c1F
